{"source": "patent US20160038454A1", "about": "“INTRAVENOUS FORMULATIONS OF TRIPTOLIDE COMPOUNDS AS IMMUNOMODULATORS AND ANTICANCER AGENTS” (priority 2013, published 2016)", "origin": "cited, not measured here", "test_system": "patients with AML", "conditions": "given intravenously, cited from earlier work"}
{"substance": "triptolide 14-succinate [PG490-88]", "values": [{"measurement": "conversion of prodrug to triptolide", "setting": "clinical", "value": "incompletely and erratically converted"}, {"measurement": "AUC / Cmax profile", "value": "relatively flat over time with no intense Cmax"}]}
